# Source: PubChem BioAssay AID2451 (National Center for Advancing Translational Sciences (NCATS), 2010)
# Amino acid sequences for entries named in this document (tags omitted). A change or cut given only in a name is not applied to a line headed by its entry.
# UniProt A8B2U2: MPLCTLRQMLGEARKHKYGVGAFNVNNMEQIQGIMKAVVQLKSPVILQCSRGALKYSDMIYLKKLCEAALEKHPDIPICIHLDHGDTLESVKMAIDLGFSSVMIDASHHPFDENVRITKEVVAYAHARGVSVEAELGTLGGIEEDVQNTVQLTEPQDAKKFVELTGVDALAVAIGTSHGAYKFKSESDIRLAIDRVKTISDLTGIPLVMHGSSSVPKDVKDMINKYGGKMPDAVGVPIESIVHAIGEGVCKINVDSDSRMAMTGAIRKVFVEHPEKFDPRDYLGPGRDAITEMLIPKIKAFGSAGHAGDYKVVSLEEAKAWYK
# This is a selection; strong and weak results do not stand in their true shares. Records with an inconclusive call do not appear. Active and inactive are the calls of the source. Calls come from the whole dose curve; as a rule, active = well fitted inhibition curve with a large enough effect; inconclusive = small, poorly fitted or top-dose-only effect, or effect the other way; inactive = flat fitted curve, though single readings scatter.
# Biological target: Fructose-bisphosphate aldolase (Giardia intestinalis (strain ATCC 50803 / WB clone C6)) (UniProt A8B2U2)
# Test: qHTS Assay for Inhibitors of Fructose-1,6-bisphosphate Aldolase from Giardia Lamblia; note: nearly all actives have a fitted effect of over 55% in size
# Details: purified Giardia FBPA; series mostly up to 59.6 µM; activity, negative = inhibition: at the top concentration
# % is set by controls: 0 for no effect and ±100 for the full control effect; potency is the fitted concentration of half-maximal effect.
SMILES,"activity, negative = inhibition",Potency
CN(C)C1(CNC(=O)c2ccc(S(C)(=O)=O)cc2)CCCCC1,inactive: -0.984%,–
CC1CCC(C(C)C)C(OP(=O)(Nc2ccccn2)c2ccccc2)C1 (configuration not stated),inactive: 7.78%,–
Cc1ccc(C(=O)OC2CN3CCC2CC3)cc1 (configuration not stated),inactive: 5.72%,–
Cc1nn(-c2ccccc2)c2c1P(=O)(N1CCOCC1)N(C)C(c1ccccc1)=N2 (configuration not stated),inactive: 5.37%,–
O=P1(Nc2ccc(Br)cn2)COc2ccccc2OC1,inactive: 3.03%,–
Cc1ccc(OCC(=O)OC2CN3CCC2CC3)cc1 (configuration not stated),inactive: 1.78%,–
O=[As](O)(c1cccs1)c1cccs1,inactive: 0.656%,–
Nc1cccc([As](=O)(O)c2ccccc2)c1,inactive: 3.73%,–
O=P1(Nc2ncccn2)COc2ccccc2OC1,inactive: 2.48%,–
Nc1ccccc1[As](=O)(O)c1ccccc1,inactive: -0.559%,–
O=C(O)COc1ccc([As](=O)(O)O)cc1[N+](=O)[O-],inactive: -8.45%,–
CS(=O)(=O)c1cc([N+](=O)[O-])c2no[n+]([O-])c2c1,–,active: 11200 nM
O=P(Nc1nccs1)(c1ccccc1)c1nc2ccccc2s1 (configuration not stated),–,active: 2810 nM
O=P(Nc1nccs1)(Oc1ccccc1)Oc1ccccc1,inactive: 12.8%,–
CCOP1(=S)c2c(C)nn(CCC#N)c2N=C(c2ccccc2F)N1C (configuration not stated),inactive: 1.39%,–
O=[N+]([O-])c1ccc2c(c1)nnn2O,inactive: 11.9%,–
CCOP1(=S)c2c(C)nn(CCC#N)c2N=C(c2ccc(F)cc2)N1C (configuration not stated),inactive: -1.15%,–
CN(C(=O)Cc1ccccc1)[C@@H]1CC[C@]2(CCCO2)C[C@H]1N1CCCC1,–,inactive
O=[N+]([O-])CC(O)c1ccc([N+](=O)[O-])cc1 (configuration not stated),inactive: -2.15%,–

SMILES,"activity, negative = inhibition",Potency
O=[As](O)(c1cccc(O)c1)c1cccc(O)c1,inactive: 1.44%,–
Cc1cccc(OCC(=O)OC2CN3CCC2CC3)c1 (configuration not stated),inactive: -6.65%,–
COc1cc(C(=O)NCC2(N3CCOCC3)CCCCC2)cc(Cl)c1OC(C)C,inactive: -14.9%,–
O=[As](O)(O)c1cccnc1,inactive: -2.22%,–
CN(C(=O)Cc1ccc(Cl)c(Cl)c1)[C@@H]1CC[C@]2(CCCO2)C[C@H]1N1CCCC1,inactive: 3.07%,–
O=C(OC1CN2CCC1CC2)c1ccc(Cl)cc1 (configuration not stated),inactive: 0.264%,–
CCOP(=O)(Nc1cccc2ccccc12)OCC,inactive: 0.0526%,–
COc1cc(C2NCCC3(OCCO3)C2(C)C)cc(OC)c1OC (configuration not stated),inactive: 7.13%,–
CCCOP(=S)(Nc1nc(N)cc(=O)[nH]1)OCCC,–,active: 3160 nM
Cc1ccc(NCCc2c([N+](=O)[O-])cc([N+](=O)[O-])cc2[N+](=O)[O-])cc1,inactive: -27.7%,–
COc1cc(I)ccc1[As](=O)(O)O,inactive: 4.9%,–
COc1ccc2nc(NP(=O)(c3ccccc3)c3ccccc3)sc2c1,inactive: 0.251%,–
Cc1cc(=O)[nH]c(N[N+](=O)[O-])n1,inactive: 3.08%,–
O=C(OC1CN2CCC1CC2)C12CC3CC(CC(C3)C1)C2 (configuration not stated),inactive: -4.74%,–
Cc1c2c(nc3ccccc13)SC(C(Cl)Cl)C2 (configuration not stated),inactive: 8.21%,–
COc1ccc(N/C(=N/P(=O)(N2CCOCC2)N2CCOCC2)N2CCOCC2)cc1,inactive: 2.1%,–
Cc1ccc2nc3c(c(C)c2c1)CC(C(Cl)Cl)S3 (configuration not stated),inactive: -9.93%,–
Cc1ccc(OP(=O)(Nc2ccc([N+](=O)[O-])cn2)Oc2ccc(C)cc2)cc1,inactive: 1.66%,–
C[As](=O)(O)c1cccc(C(=O)O)c1,inactive: 1.63%,–

SMILES,"activity, negative = inhibition",Potency
O=[As](O)(c1ccc(O)cc1)c1ccccc1O,inactive: -4.12%,–
O=[N+]([O-])c1cc([N+](=O)[O-])c(-c2ccn[nH]2)s1,inactive: -14.2%,–
CCN(CC)C(=S)SC(NC=O)C(Cl)(Cl)Cl (configuration not stated),inactive: -8.16%,–
CC(C)NC(=O)NP(=O)(Oc1ccccc1)Oc1ccccc1,inactive: 5.38%,–
CC(C)c1ccc(OP(=O)(Nc2ccccn2)Oc2ccccc2F)cc1 (configuration not stated),inactive: -0.591%,–
ClCCSc1nnc(-c2cccnc2)o1,inactive: 3.05%,–
Cc1cc(SC(NC(=O)c2ccccc2)C(Cl)(Cl)Cl)nc(C(C)C)n1 (configuration not stated),inactive: 2.68%,–
CCCCOc1ccc(C(=O)NCC2(N3CCCCC3)CCCCC2)cc1OC,inactive: 10.1%,–
CCOC(=O)Nc1ccc([As](=O)(O)O)c(O)c1,inactive: -4.54%,–
O=[N+]([O-])c1ccc(Nc2ccc(Oc3ccc([N+](=O)[O-])cc3[N+](=O)[O-])cc2)c([N+](=O)[O-])c1,inactive: 3.96%,–
O=P(Nc1ccccn1)(c1cccc2ccccc12)c1cccc2ccccc12,inactive: -4.57%,–
Cc1cc(SC(NC=O)C(Cl)(Cl)Cl)ncn1 (configuration not stated),–,active: 1770 nM
CCOC(=O)Nc1cccc([As](=O)(O)O)c1,inactive: 3.56%,–
O=C(Nc1ccncc1[N+](=O)[O-])c1ccc([N+](=O)[O-])cc1[N+](=O)[O-],inactive: -12.8%,–
O=C(COc1ccccc1)OC1CN2CCC1CC2 (configuration not stated),inactive: -0.565%,–
COP1(=S)c2c(C)nn(CCC#N)c2N=C(c2ccc(F)cc2)N1C (configuration not stated),inactive: -0.921%,–
CCC(C)N(CC(C)C)C(=S)SC(NC(C)=O)C(Cl)(Cl)Cl (configuration not stated),inactive: -1.31%,–
CCOC(=O)c1ccc(NC(=O)C(C)(CCl)SC)cc1 (configuration not stated),inactive: -9.03%,–
O=C(OC1CN2CCC1CC2)c1cccc([N+](=O)[O-])c1 (configuration not stated),inactive: 1.54%,–
